Ab-14 heavy chain CDR variants: yeast mating affinities

Values reported by Engelhart et al. 2022, doi:10.1038/s41597-022-01779-4 (FLAb copy).

All variants were tested on one target, the spike HR2 peptide PDVDLGDISGINAS (SARS-CoV-2).

Parent scFv Ab-14: VH joined to VL by a (GGGGS)3 linker. Changes lie in the heavy chain CDRs alone.
VH: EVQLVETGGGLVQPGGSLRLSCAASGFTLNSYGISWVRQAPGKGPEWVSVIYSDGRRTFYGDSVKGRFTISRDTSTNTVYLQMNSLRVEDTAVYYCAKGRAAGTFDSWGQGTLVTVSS
VL: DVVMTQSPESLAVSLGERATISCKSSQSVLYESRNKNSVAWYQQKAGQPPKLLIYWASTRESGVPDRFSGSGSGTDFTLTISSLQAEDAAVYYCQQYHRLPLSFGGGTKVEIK

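Phage display of a naive human antibody library on the peptide gave the parent. Library AAYL49 holds single substitutions and randomly drawn double and triple substitutions in the CDRs. The scFvs were displayed on barcoded MATa yeast, the peptide on MATalpha yeast. The frequency of each diploid, read from paired DNA barcodes, reflects how well the two displayed proteins bind. The ratio of observed to expected reads was calibrated, replicate by replicate, on BCL2-family standards whose Kd was known from biolayer interferometry. The assay was run in three technical replicates.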

The parent's heavy chain CDRs are GFTLNSYGIS, VIYSDGRRTFYGDSVK, GRAAGTFDS; each variant's own CDRs replace them letter for letter. The read-out is the apparent dissociation constant on a log10 scale (nM): the lower, the stronger. Where no diploid with the target was found in that replicate, the entry reads "n.d.": below detection, most likely a poor binder, though not proof of it.

CDR-H1 | CDR-H2 | CDR-H3 | log10 Kd (nM) by replicate | signal with controls
SFTLNSNWIS | VIYSDGRRTFYGDSVK | GRAAGTFDS | n.d. n.d. 2.86 | 0 of 9
GFTLNSYGIS | VIYSDGRKTFYGDSNK | FRAAGTFDS | n.d. n.d. n.d. | 2 of 9 (4.55)
GFTLNSYGIS | VIYSDGRRTFQGDSVK | GRALGTFWS | 4.37 3.37 n.d. | 2 of 9 (4.12)
GFTLNSYGIS | VIYSDGVRTNYSDSVK | GRAAGTFDS | 0.96 1.32 1.17 | 0 of 9
GFMLNSYGIS | VIYSDGRRTFYGDSVK | MRAAGTFDY | 3.53 2.78 3.11 | 8 of 9 (4.46)
GFTLNSYGLS | VIYSDGRRTFSGDSVK | YRAAGTFDS | n.d. n.d. n.d. | 0 of 9
GFTLGSYGIV | VIYSVGRRTFYGDSVK | GRAAGTFDS | n.d. n.d. n.d. | 0 of 9
GFTLNSFGIS | VIYSDGYRTFYGDSVC | GRAAGTFDS | n.d. 3.22 n.d. | 3 of 9 (3.63)
MFTLNSYGIS | VIYSDGRRTPYGDSVK | GEAAGTFDS | n.d. n.d. n.d. | 2 of 9 (5.06)
GFTLNSYGIS | VIYSDGKRTCYGISVK | GRAAGTFDS | n.d. n.d. n.d. | 2 of 9 (4.36)
GFTLNSYGIS | VIYTSGRRTFYQDSVK | GRAAGTFDS | n.d. n.d. n.d. | 0 of 9
GFTLNSYGIS | VIYSDGRRTFWGDSVK | GRAIGTNDS | n.d. 3.75 n.d. | 0 of 9
GFTLNSYGIS | VIYSDGRRSFYGDSRK | GRAAGTDDS | 2.91 n.d. n.d. | 0 of 9
GFTLNSYGIS | VIYSDGRRTFYGASVK | GRAANTFSS | n.d. n.d. n.d. | 0 of 9
GKTLNSYGHS | VIYSDGRRTFYGDSVK | GYAAGTFDS | n.d. 4.04 n.d. | 3 of 9 (3.72)
GFQLNSYGIS | VIYSDGRRTFYGAAVK | GRAAGTFDS | n.d. n.d. n.d. | 0 of 9
MFTLNNYGIS | VIYVDGRRTFYGDSVK | GRAAGTFDS | 1.96 3.25 2.47 | 1 of 9 (3.83)
DFTLNSYGIT | VIYSDGRRTFYGDSVK | GRAAGKFDS | 3.65 4.68 n.d. | 1 of 9 (3.60)
GFTLNSYGIS | VIYSDVRRTFWTDSVK | GRAAGTFDS | n.d. n.d. n.d. | 0 of 9
GFTLNSYGIS | VIYSDGRRTFYGDSVK | GEAYGTFDS | n.d. 3.40 4.97 | 2 of 9 (3.62)
GFTLCSYGIS | VTYSDGRRTFYGDSVK | GRAARTFDS | n.d. n.d. n.d. | 1 of 9 (4.20)
GFTLNFYGIS | VIYSDGRRTFYGDSVK | GGSAGTFDS | 2.91 3.23 3.61 | 0 of 9
GFKLNSYGIS | VIYSDGRRTFYGDSVK | CRAAHTFDS | 0.64 0.94 0.74 | 0 of 9
GFTLNSYGIS | VIYSDGRRTKYGDCDK | GRAAGTFDS | n.d. n.d. n.d. | 1 of 9 (2.16)
GFTLNSYGIS | VIYSDGRLTNYGDSVK | GRQAGTFDS | n.d. n.d. n.d. | 0 of 9
GFTLNSYGIS | VIYSDGRRTFYGDSIK | GRAADTFES | 1.74 2.21 2.28 | 1 of 9 (1.93)
GFHLNSYGIS | WIYSDGRRTFYGDSVK | ARAAGTFDS | 4.88 n.d. n.d. | 0 of 9
GFTLNSYGFS | VIYSDGRRTFYGDSVK | GRAMETFDS | 5.31 n.d. n.d. | 1 of 9 (4.47)
GWTLNSYGIS | VIYSDGRRTFYGFSVK | GRAAGTWDS | n.d. n.d. n.d. | 0 of 9
GFTLNSYGIS | VIYSGGRLTFYGDSEK | GRAAGTFDS | n.d. n.d. 3.84 | 2 of 9 (3.48)
DFTLNSYGIS | VIYSDGRSTFYGDSVK | GRAAGTWDS | n.d. 4.35 5.42 | 3 of 9 (3.92)
GFTLNSYGIS | VCYSDGRRTFYGESVK | GRAAGTFDE | 4.39 n.d. n.d. | 5 of 9 (4.36)
GITTNSYGIS | VIYSDGRRTFYGDSVK | VRAAGTFDS | n.d. n.d. n.d. | 2 of 9 (3.68)
GFSLNSYGIS | VIYSPGRRTFYGDSVK | GRAAGTSDS | n.d. n.d. n.d. | 0 of 9
GFTLNSYGIS | IIYSDGRRTFYMDSVK | GRAKGTFDS | n.d. n.d. n.d. | 2 of 9 (3.87)
GFTLNSYGDS | VIYSDGRRRFYGDSVK | GRAAGRFDS | n.d. n.d. n.d. | 0 of 9
GFTLNSYGIS | VIYSDGRRIFYGGSVK | VRAAGTFDS | n.d. n.d. n.d. | 0 of 9
GFTLNSQGIS | VIYSDGRRTFYGPSVK | GRAAGTFDS | 1.17 0.79 2.48 | 0 of 9
HFTLPSYGIS | VIYSDGRRTFYGDSDK | GRAAGTFDS | 3.40 4.51 n.d. | 2 of 9 (3.43)
GFTLNSYGIS | VIYSDERRTFYGDSVK | GRAAGNSDS | 5.11 3.65 n.d. | 4 of 9 (3.79)
GFTDNSYGIS | VIYSDGRGTFFGDSVK | GRAAGTFDS | 2.85 n.d. n.d. | 1 of 9 (4.64)
GFLLNSYGIS | VIYSDGVRTFYEDSVK | GRAAGTFDS | 1.02 1.12 1.28 | 1 of 9 (2.66)
GFTLNSYGQS | VQYSDGRRTFYGDSVK | GRAAGTFDS | n.d. n.d. 4.55 | 1 of 9 (4.08)
GFTLNSYGIS | VAYSDGRRTNYGDSVK | GRAAGWFDS | 2.23 2.38 2.33 | 1 of 9 (2.97)
GFTLNSYGIS | VIYSDGRRTFDGDSVK | GRSACTFDS | n.d. n.d. n.d. | 2 of 9 (4.22)
GFTLNFYGIS | VIYSDGRNTFYGDSVK | GRAAGTDDS | 2.97 n.d. 4.85 | 1 of 9 (3.98)
GFLLNSYEIS | VIYSDGRRTFYGDSVK | GRAAGQFDS | n.d. 2.91 n.d. | 1 of 9 (2.89)
GFTLNSYGIS | VIYSNGRRTFYGDSVK | GRARGTFDD | n.d. n.d. n.d. | 0 of 9
GFTLNSYGIS | VIYSDGRRTFYGDNIK | LRAAGTFDS | n.d. n.d. n.d. | 0 of 9
GFTLNSYGIG | VIYSDGRWTFYGDSVK | GRHAGTFDS | n.d. 4.71 n.d. | 1 of 9 (2.98)
GFTLNSYVIS | VIYSDGFRTFYGDSKK | GRAAGTFDS | n.d. n.d. n.d. | 0 of 9

A selection of 8 entries from above:

CDR-H1	CDR-H2	CDR-H3	log10 Kd (nM) by replicate	signal with controls
GFTLNSYGIS	VIYSDERRTFYGDSVK	GRAAGNSDS	5.11 3.65 n.d.	4 of 9 (3.79)
GFKLNSYGIS	VIYSDGRRTFYGDSVK	CRAAHTFDS	0.64 0.94 0.74	0 of 9
GFTLNSYVIS	VIYSDGFRTFYGDSKK	GRAAGTFDS	n.d. n.d. n.d.	0 of 9
GFTLNSFGIS	VIYSDGYRTFYGDSVC	GRAAGTFDS	n.d. 3.22 n.d.	3 of 9 (3.63)
GFTLNSYGIS	VIYSGGRLTFYGDSEK	GRAAGTFDS	n.d. n.d. 3.84	2 of 9 (3.48)
SFTLNSNWIS	VIYSDGRRTFYGDSVK	GRAAGTFDS	n.d. n.d. 2.86	0 of 9
GFQLNSYGIS	VIYSDGRRTFYGAAVK	GRAAGTFDS	n.d. n.d. n.d.	0 of 9
GFTLNSYGFS	VIYSDGRRTFYGDSVK	GRAMETFDS	5.31 n.d. n.d.	1 of 9 (4.47)

Background: pairings of library AAYL49 with three empty control strains gave a value in 15% of cases (median 4.06, 5th percentile 2.83). Values in that range, when seen in few replicates, are hard to tell from nonspecific mating. Also given: how often the same scFv was detected with the empty control strains, with their mean in brackets. For reference, the parent read 0.65 as the reference entry and 4.11 (one replicate of three) as a member of this library.